Measured values from patent US9051270B2, “Pyridone amides as modulators of sodium channels” (Vertex Pharmaceuticals Incorporated, priority 2013, dated 2015).
pIC50: −log10 of the molar value.

Sequences of proteins named here, by UniProt entry; tags and fusion partners are left off.
UniProt Q9Y5Y9, whole entry: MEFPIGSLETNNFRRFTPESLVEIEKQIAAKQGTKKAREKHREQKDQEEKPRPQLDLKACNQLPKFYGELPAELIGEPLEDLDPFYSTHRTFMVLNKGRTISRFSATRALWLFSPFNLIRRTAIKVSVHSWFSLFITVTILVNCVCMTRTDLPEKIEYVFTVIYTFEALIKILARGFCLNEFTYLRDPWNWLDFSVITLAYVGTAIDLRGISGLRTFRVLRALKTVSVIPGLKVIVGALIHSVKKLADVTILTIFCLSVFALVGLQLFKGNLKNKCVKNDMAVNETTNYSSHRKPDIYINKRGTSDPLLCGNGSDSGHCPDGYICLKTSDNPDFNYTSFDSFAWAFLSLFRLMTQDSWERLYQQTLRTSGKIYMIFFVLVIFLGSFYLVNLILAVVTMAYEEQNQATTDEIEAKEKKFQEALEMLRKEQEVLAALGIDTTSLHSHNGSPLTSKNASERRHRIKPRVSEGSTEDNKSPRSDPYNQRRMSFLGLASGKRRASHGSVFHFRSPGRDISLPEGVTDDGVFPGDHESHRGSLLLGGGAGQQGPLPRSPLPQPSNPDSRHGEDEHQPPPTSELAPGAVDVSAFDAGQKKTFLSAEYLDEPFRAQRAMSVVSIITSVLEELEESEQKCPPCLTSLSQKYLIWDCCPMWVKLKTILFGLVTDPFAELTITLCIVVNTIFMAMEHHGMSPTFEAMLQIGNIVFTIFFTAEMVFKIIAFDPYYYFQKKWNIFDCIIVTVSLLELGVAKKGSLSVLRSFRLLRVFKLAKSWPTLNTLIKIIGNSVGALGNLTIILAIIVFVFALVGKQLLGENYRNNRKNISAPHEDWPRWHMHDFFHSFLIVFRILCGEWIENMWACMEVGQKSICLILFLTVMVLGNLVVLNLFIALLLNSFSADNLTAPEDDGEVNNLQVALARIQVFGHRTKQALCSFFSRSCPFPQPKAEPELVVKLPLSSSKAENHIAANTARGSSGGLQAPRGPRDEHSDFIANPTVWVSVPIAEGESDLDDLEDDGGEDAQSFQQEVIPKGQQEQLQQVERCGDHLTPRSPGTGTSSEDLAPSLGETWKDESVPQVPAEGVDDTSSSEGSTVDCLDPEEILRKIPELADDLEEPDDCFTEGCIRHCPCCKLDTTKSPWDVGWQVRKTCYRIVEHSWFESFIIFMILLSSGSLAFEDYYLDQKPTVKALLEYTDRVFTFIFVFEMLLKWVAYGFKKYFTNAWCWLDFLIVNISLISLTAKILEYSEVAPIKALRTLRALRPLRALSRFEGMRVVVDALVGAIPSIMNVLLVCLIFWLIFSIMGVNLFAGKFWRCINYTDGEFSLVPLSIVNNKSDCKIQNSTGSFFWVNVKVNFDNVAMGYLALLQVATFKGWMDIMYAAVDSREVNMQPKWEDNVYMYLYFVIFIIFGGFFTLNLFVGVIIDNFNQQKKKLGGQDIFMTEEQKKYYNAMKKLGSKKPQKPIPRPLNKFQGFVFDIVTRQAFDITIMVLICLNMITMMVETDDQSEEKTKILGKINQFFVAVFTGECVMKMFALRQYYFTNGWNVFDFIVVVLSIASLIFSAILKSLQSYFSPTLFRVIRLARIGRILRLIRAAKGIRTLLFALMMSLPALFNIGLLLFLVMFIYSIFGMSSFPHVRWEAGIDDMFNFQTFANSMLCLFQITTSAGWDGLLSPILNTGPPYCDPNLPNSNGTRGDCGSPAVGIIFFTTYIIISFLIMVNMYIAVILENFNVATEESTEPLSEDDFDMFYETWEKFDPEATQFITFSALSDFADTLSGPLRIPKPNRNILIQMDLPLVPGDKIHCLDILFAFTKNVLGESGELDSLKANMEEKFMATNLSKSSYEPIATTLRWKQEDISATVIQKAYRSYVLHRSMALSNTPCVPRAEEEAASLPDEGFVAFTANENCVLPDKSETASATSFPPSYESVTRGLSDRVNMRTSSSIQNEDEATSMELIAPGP

Molecular target: human Nav1.8 (Homo sapiens (Human), UniProt Q9Y5Y9)
Test: E-VIPR optical membrane potential assay with electrical stimulation
Assay type: cell-based
Conditions: HEK cells expressing human Nav1.8
Source text: Sodium channels are voltage-dependent proteins that can be activated by inducing membrane voltage changes by applying electric fields. […] The instrument comprises a microtiter plate handler, an optical system for exciting the coumarin dye while simultaneously recording the coumarin and oxonol emissions, a waveform generator, a current- or voltage-controlled amplifier, and a device for inserting electrodes in well. Under integrated computer control, this instrument passes user-programmed electrical stimulus protocols to cells within the wells of the microtiter plate.
24 hours before the assay on E-VIPR, HEK cells expressing human Nav1.8 were seeded in 384-well poly-lysine coated plates at 15,000-20,000 cells per well. […]
7) Read Plate on E-VIPR. […]
Data was analyzed and reported as normalized ratios of emission intensities measured in the 460 nm and 580 nm channels. […]
The data was further reduced by calculating the initial (Ri) and final (Rf) ratios. […] The response to the stimulus R=Rf/Ri was then calculated and reported as a function of time.
Control responses were obtained by performing assays in the presence of a compound with the desired properties (positive control), such as tetracaine, and in the absence of pharmacological agents (negative control). Responses to the negative (N) and positive (P) controls were calculated as above. […]

- pIC50: 7.85
Structure (SMILES): Cc1cc(F)ccc1Oc1cc(C(F)(F)F)ccc1C(=O)Nc1cc[nH]c(=O)c1 [Compound 10, 2-(4-fluoro-2-methylphenoxy)-N-(2-oxo-1,2-dihydropyridin-4-yl)-4-(trifluoromethyl)benzamide]
